Among the data in patent US12268667B2, “JAK1 pathway inhibitors for the treatment of prurigo nodularis” (Incyte Corporation, priority 2021, dated 2025) are IC50 values, retold here.

pIC50: −log10 of the molar value. Bounds are passed on as bounds.

This assay addresses human JAK1 (a.a. 837-1142) (Homo sapiens, UniProt P23458). The experiment in a line: In vitro JAK kinase assay (HTRF), JAK1. Format: biochemical. Conditions: 1 mM ATP.

For the compound `CN(C)Cc1cc(F)cc(OC2CCN(CC(CC#N)n3cc(-c4ncnc5[nH]ccc45)cn3)CC2)c1` (single isomer, unassigned) [Compound 14, 4-(4-{3-[(dimethylamino)methyl]-5-fluorophenoxy}piperidin-1-yl)-3-[4-(7H-pyrrolo[2,3-d]pyrimidin-4-yl)-1H-pyrazol-1-yl]butanenitrile], the pIC50 is over 8.00.
